Protein sequences, listed by entry. Tags and fused reporters are not part of them.
UniProt P19634, whole entry: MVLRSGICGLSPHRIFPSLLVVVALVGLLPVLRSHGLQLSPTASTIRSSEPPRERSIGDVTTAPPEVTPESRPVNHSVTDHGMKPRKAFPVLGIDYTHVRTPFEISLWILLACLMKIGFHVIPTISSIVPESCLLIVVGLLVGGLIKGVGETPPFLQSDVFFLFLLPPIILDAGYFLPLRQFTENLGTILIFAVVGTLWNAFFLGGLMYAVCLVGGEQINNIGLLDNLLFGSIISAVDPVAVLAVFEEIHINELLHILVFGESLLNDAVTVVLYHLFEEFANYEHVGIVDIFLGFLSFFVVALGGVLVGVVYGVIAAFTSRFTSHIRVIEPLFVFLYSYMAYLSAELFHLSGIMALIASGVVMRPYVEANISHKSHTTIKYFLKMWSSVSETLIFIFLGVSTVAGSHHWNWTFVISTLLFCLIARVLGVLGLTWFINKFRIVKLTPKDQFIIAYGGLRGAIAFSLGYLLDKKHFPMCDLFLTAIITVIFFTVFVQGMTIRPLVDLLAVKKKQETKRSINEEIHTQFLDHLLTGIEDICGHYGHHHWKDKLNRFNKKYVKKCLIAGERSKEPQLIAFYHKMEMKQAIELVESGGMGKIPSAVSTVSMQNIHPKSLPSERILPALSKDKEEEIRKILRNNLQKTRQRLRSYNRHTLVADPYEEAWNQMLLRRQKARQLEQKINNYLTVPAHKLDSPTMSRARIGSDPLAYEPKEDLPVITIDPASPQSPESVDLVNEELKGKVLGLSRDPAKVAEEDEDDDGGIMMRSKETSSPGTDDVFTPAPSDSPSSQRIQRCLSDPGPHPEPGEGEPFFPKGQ

According to ChEMBL document CHEMBL5512616, “pH regulators and their inhibitors in tumor microenvironment” (Eur J Med Chem, 2024):

Tests used:
[1] = molecular target: Sodium/hydrogen exchanger 1 (Homo sapiens, UniProt P19634); details: dose 1.0 µM
[2] = molecular target: T1, Monocarboxylate transporter 1 (Homo sapiens) (UniProt P53985); assay: Inhibition of MCT1 (unknown origin) at 50 uM relative to control
T1 sequence (whole entry): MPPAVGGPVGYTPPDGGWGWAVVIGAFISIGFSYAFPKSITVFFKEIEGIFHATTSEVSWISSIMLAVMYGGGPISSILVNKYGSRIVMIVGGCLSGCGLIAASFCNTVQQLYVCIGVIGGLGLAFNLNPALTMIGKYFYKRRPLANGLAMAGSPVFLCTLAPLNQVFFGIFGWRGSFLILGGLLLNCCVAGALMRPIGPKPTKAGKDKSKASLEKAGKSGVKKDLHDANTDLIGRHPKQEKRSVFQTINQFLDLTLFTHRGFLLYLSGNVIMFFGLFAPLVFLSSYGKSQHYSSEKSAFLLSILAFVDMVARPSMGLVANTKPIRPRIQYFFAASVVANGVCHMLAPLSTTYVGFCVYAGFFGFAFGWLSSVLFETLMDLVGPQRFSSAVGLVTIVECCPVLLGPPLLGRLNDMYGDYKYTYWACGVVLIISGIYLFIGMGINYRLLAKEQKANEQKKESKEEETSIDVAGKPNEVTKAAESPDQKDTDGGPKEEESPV

[3] = Inhibition of MCT1 in Xenopus laevis Oocyte by lactate transport assay; type: cell-based

Row | Compound | inhibition [2] [%] | other results
1 | COCCOc1cccc2c(C(=O)N=C(N)N)cc(-c3ccccc3)nc12 |  | inhibition [1]: 62.9%
2 | O=c1c(O)c(-c2ccc(O)c(O)c2)oc2cc(O)cc(O)c12 | 84.7 | 
3 | O=c1cc(-c2ccc(O)cc2)oc2cc(O)cc(O)c12 | 52.5 | 
4 | COc1ccc(-c2cc(=O)c3c(O)cc(O)cc3o2)cc1O | 49.1 | 
5 | O=C(O)Cc1ccccc1Nc1c(Cl)cccc1Cl [DICLOFENAC] |  | IC50 [3]: 1.45 µM
6 | O=c1cc(-c2ccccc2)oc2cc(O)cc(O)c12 | 48.6 | 
7 | O=c1c(O)c(-c2ccc(O)cc2)oc2cc(O)cc(O)c12 | 71.3 | 
8 | O=c1c(O)c(-c2ccc(O)c(O)c2)oc2cc(O)ccc12 | 93.9 | 
